# Assay results taken from patent publication US5728580A, “Methods and culture media for inducing single cell suspension in insect cell lines” (Cornell Research Foundation, Inc., priority 1996, dated 1998).
# System: TN5B1-4 cells
# Procedure: Three different molecular weights of dextran sulfate, derived from dextran of MW 5000, 20000, 500000, were evaluated.
# Compounds were evaluated for their ability to induce single cell suspension in 50-ml spinner flasks at 160 rpm. Control cells were passaged at least 10 times in suspension before they were used in any experiments. […] A qualitative score for reduction in clumping relative to control cells was assigned to cells grown in the presence of test compound at the end of the third passage. The protocol for enzyme treatment was the same, but the seeding density was 1×10^6 cells/ml and cells were evaluated after 24 h.
substance,measurement,value
DEAE-dextran [DEAE dextran],Toxic above this level,> 5 µg/mL
